Values of other authors in publication PMC8198792, “Prediction of Anticancer Peptides with High Efficacy and Low Toxicity by Hybrid Model Based on 3D Structure of Peptides” (International Journal of Molecular Sciences, 2021).

Test system: cancer cell lines
Set-up: method as in 6 sources, ref CancerPPD [45] and SATPdb ||| ref CancerPPD/SATPdb ||| ref CancerPPD, SATPdb, Swissprot (PDB) ||| ref CancerPPD/SATPdb/Swissprot(PDB) ||| ref CancerPPD / SATPdb ||| ...
Details: ACPs dataset D1, label 1 = ACP, 0 = non-ACP (non-anticancer AMPs from SATPdb); ref CancerPPD/SATPdb; cited from earlier work

Q: With EGGGPQWAVGHFM [satpdb11884] as the substance, how does the Activity read?
A: 0

Q: With FFPMLAGVAARVVPKVICLITKKC [satpdb13071] as the substance, how does the Activity read?
A: 0

Q: Which Activity does the source give for FLPIASLLGKYL [satpdb11889] here?
A: 0

Q: With FLPLVRVAAKLIPSVVCAISKRC [satpdb12257] as the substance, how does the Activity read?
A: 0

Q: Which Activity does the source give for “GILTDTLKGAAKNVAGVLLDKLKCKITGGC [satpdb12452]” here?
A: 0

Q: Which Activity does the source give for “GLFSILKGVGKIALKGLAKNMGKMGLDLVSCKISKEC [satpdb12283]” here?
A: 0

Q: For GNGVVLTLTHECNLATWTKKLKCC [satpdb12592], which Activity is on record?
A: 0

Q: For GSKKPVPIIYCNRRKCQRM [satpdb11407], which Activity is on record?
A: 0

Q: For “HPHVCTSYYCSKFCGTAGCTRYGCRNLHRGKLCFCLHCSR [satpdb13256]”, which Activity is on record?
A: 0

Q: Which Activity does the source give for “KYYGNGLSCSKKGCTVNWGQAFSCGVNRVATAGHHKC [satpdb11923]” here?
A: 0

Q: With “LSKKLICYCRIRGCKRRERVFGTCRNLFLTFVFCCS [satpdb11890]” as the substance, how does the Activity read?
A: 0

Q: For RPWAGNGSVHRYTVLSPRLKTQ [satpdb12613], which Activity is on record?
A: 0

Q: Which Activity does the source give for “RRCICTTRTCRFPYRRLGTCIFQNRVYTFCC [satpdb12581]” here?
A: 0

Q: Which Activity does the source give for RVCYAIPLPIC [satpdb11870] here?
A: 0

Q: For “SAIACGESCVYIPCFIPGCSCRNRVCYLN [satpdb12767]”, which Activity is on record?
A: 0

Q: With SAVGRHGRRFGLRKHRKH [satpdb12440] as the substance, how does the Activity read?
A: 0

Q: For “TKYYGNGVYCNSKKCWVDWGQASGCIGQTVVGGWLGGAIPGKC [satpdb13182]”, which Activity is on record?
A: 0

Q: Which Activity does the source give for “TNWKKIGKCYAGTLGSAVLGFGAMGPVGYWAGAGVGYASFC [satpdb12382]” here?
A: 0

Q: With “TTHSGKYYGNGVYCTKNKCTVDWAKATTCIAGMSIGGFLGGAIPGKC [satpdb13316]” as the substance, how does the Activity read?
A: 0

Q: Which Activity does the source give for WKSDVRRWRSRY [satpdb13059] here?
A: 0

Same assay, conditions: ACPs dataset D1; 1 = ACP (positive), 0 = non-ACP (negative); label taken from databases; ref CancerPPD [45] and SATPdb; cited from earlier work

Q: With ASWSACSVSCGGGARQRTR [satpdb17296] as the substance, how does the Activity read?
A: 1

Q: Which Activity does the source give for EKSSRPEFYKVILGAHEEYIRG [satpdb16174] here?
A: 1

Q: With FCNINNVCNFASRNDYSYW [satpdb17832] as the substance, how does the Activity read?
A: 1

Q: For FLPVLAGLTPSIVPKLVCLLTKKC [satpdb10416], which Activity is on record?
A: 0

Q: Which Activity does the source give for FSTKTRNWFSEHFKKVKEKLKDTFA [satpdb11367] here?
A: 0

Q: With FVQWFSKFLGRIL [compound 4363] as the substance, how does the Activity read?
A: 1

Q: Which Activity does the source give for “GIPCGESCVFIPCITAAIGCSCKSKVCYRN [compound 4383]” here?
A: 1

Q: For “GLFSVVTGVLKAVGKNVAKNVGGSLLEQLKCKISGGC [satpdb11247]”, which Activity is on record?
A: 0

Q: Which Activity does the source give for “GLLQTIKEKLESLESLAKGIVSGIQA [compound 4392]” here?
A: 1

Q: Which Activity does the source give for HGVSGHGQHGVHG [compound 4419] here?
A: 1

Q: Which Activity does the source give for HNRTPENFPCKNL [satpdb14648] here?
A: 1

Q: For “IATQCRIRGGFCRVGSCRFPHIAIGKCATFISCCGRAY [satpdb10589]”, which Activity is on record?
A: 0

Q: For IMRIKQGQIGQMTI [satpdb17970], which Activity is on record?
A: 1

Q: Which Activity does the source give for KAAKKAAKAAKKAAKAAKKAA [compound 3288] here?
A: 1

Q: For “KTCMTKKEGWGRCLIDTTCAHSCRKYGYMGGKCQGITRRCYCLLNC [satpdb10109]”, which Activity is on record?
A: 0

Q: For RQVFQVAYIIIKA [satpdb27572], which Activity is on record?
A: 1

Q: Which Activity does the source give for RRPAAAGKRRREKQRPSDKPRR [satpdb16692] here?
A: 1

Q: With RRPKGRGKRAAAKQRPSDKPRR [satpdb22628] as the substance, how does the Activity read?
A: 1

Q: For “RTCESQSHKFKGPCFSDSNCATVCRTENFPRGQCNQHHVERKCYCERSC [satpdb11053]”, which Activity is on record?
A: 0

Q: For “RTCRCRLGRCSRRESYSGSCNINGRIYSLCCR [satpdb11346]”, which Activity is on record?
A: 0

Q: Which Activity does the source give for “RWKVFKKIEKVGRNIRDGVIKAAPAIEVLGQAKAL [satpdb11143]” here?
A: 0

Q: For SCTTCVCTCSCCTT [satpdb10987], which Activity is on record?
A: 0

Q: Which Activity does the source give for SEWSDCSVTCGKGMRTRQR [satpdb28027] here?
A: 1

Q: For “SIGAKILGGVKTFFKGALKELASTYLQ [compound 1652]”, which Activity is on record?
A: 1

Q: With “SIRDKIKTIAIDLAKSAGTGVLKTLICKLDKSC [satpdb11261]” as the substance, how does the Activity read?
A: 0

Q: Which Activity does the source give for SKRKSRPVSVKTFEDIPLEEP [satpdb21003] here?
A: 1

Q: With SPNITVTLKKFPL [satpdb16044] as the substance, how does the Activity read?
A: 1

Q: For SPSTHPNEGLEENYCRNPDN [satpdb18195], which Activity is on record?
A: 1

Q: Which Activity does the source give for SPWDICSVTCGGGVQKRSR [satpdb14271] here?
A: 1

Q: For SPWSPCSTSCGLGVSTRI [satpdb16807], which Activity is on record?
A: 1

Q: Which Activity does the source give for SPWSQCSVRCGRGQRSRQVR [satpdb28887] here?
A: 1

Q: Which Activity does the source give for SPWSSASVTAGDGVDITRIR [satpdb10113] here?
A: 1

Q: For SQWSPCSRTCGGGVSFRER [satpdb27624], which Activity is on record?
A: 1

Q: Which Activity does the source give for SVSGGGHHHHHHGGG [satpdb10012] here?
A: 1

Q: Which Activity does the source give for TAGIKLTVPIEKFPVTTQTFWG [compound 3368] here?
A: 1

Q: For TGALVEEEDPF [satpdb12029], which Activity is on record?
A: 1

Q: For VGALAVVVWLYLWLW [satpdb10590], which Activity is on record?
A: 0

Q: With VNWKKILGKIIKVVK [compound 3501] as the substance, how does the Activity read?
A: 1

Q: Which Activity does the source give for “VTCFCRRRGCASRERHIGYCRFGNTIYRLCCRR [satpdb10365]” here?
A: 0

Q: With “WKSESVCTPGCVTGVLQTCFLQTITCNCHISK [satpdb10992]” as the substance, how does the Activity read?
A: 0

Q: With WTRCSSSCGRGVSVRSR [satpdb17430] as the substance, how does the Activity read?
A: 1

Q: For YCNINEVCHYARRNDKSYWL [satpdb18127], which Activity is on record?
A: 1

Q: For YLKNYRIATFKNWPF [satpdb18163], which Activity is on record?
A: 1

Q: Which Activity does the source give for YPYDVPDYASL [satpdb18483] here?
A: 1

Same assay, conditions: ACPs dataset D2 (supplement ACPs(seguence).xlsx, sheet D2); dataset label 1/0 (ACP / non-ACP); entries identified by Swissprot(PDB ID); ref CancerPPD/SATPdb/Swissprot(PDB); cited from earlier work

Q: With “AHMDCTEFNPLCRCNKMLGDLICAVIGDAKEEHRNMCALCCEHPGGFEYSNGPCE [1IW4 NMR - A 1-55]” as the substance, how does the Activity read?
A: 0

Q: Which Activity does the source give for “DECANAAAQCSITLCNLYCGPLIEICELTVMQNCEPPFS [1ERY NMR - A 1-39]” here?
A: 0

Q: For “MAKGKRTFQPNNRRRARVHGFRLRMRTRAGRAIVANRRSKGRRALTA”, which Activity is on record?
A: 0

Q: With “MKKYVCTVCGYEYDPAEGDPDNGVKPGTSFDDLPADWVCPVCGAPKSEFEAA [1RB9 X-ray 0.92 A 1-52]” as the substance, how does the Activity read?
A: 0

Q: For “MVEPLLCGIVLGLVPVTIAGLFVTAYLQYLRGDLATY [1Q90 X-ray 3.10,G,1-37]”, which Activity is on record?
A: 0

Q: With “SEKPQQELEECQNVCRMKRWSTEMVHRCEKKCEEKFERQQR [2LQX NMR - A 1-41]” as the substance, how does the Activity read?
A: 0

Q: For “TIVIDHEECIGCESCVELCPEVFAMIDGEEKAMVTAPDSTAECAQDAIDACPVEAISKE [1DWL NMR - A 1-59]”, which Activity is on record?
A: 0

Q: With “TQGNTCGGETCSAAQVCLKGKCVCNEVHCRIRCKYGLKKDENGCEYPCSCAKASQ [1BX7 X-ray 1.20 A 1-55]” as the substance, how does the Activity read?
A: 0

Q: For “YVSCLFRGARCRVYSGRSCCFGYYCRRDFPGSIFGTCSRRNF [2DCV NMR - A 1-42]”, which Activity is on record?
A: 0

Same assay, conditions: ACPs dataset D3 (sheet "D3"); label 1 = ACP, 0 = non-ACP; ref CancerPPD/SATPdb; cited from earlier work

Q: Which Activity does the source give for FKRLEKLFSKIWNWK [satpdb14858] here?
A: 0

Q: Which Activity does the source give for ILPILGNLLNSLL [satpdb13527] here?
A: 0

Q: For INWSSIFESVKNLV [satpdb12662], which Activity is on record?
A: 0

Q: For LKKLLKKLLKW [satpdb14863], which Activity is on record?
A: 0

Q: For RWCFRVCYRGICYRKCR [satpdb12755], which Activity is on record?
A: 0

Q: Which Activity does the source give for VKKFPWWWPFLKK [satpdb14862] here?
A: 0

Q: For VOLfPVOLfP [satpdb14186], which Activity is on record?
A: 0

Q: For fPVOLOfPOVOL [satpdb13884], which Activity is on record?
A: 0

Same assay, conditions: ACPs dataset D3 (supplement sheet "D3"); 1 = ACP, 0 = non-ACP; ref CancerPPD [45] and SATPdb; cited from earlier work

Q: Which Activity does the source give for GKWMTLLKHILK [compound 3660] here?
A: 1

Q: Which Activity does the source give for “KKKFPWWWPFKKKKKKFPWWWPFKKKK [compound 1911]” here?
A: 1

Q: For KLlLKlLkkLLKlLKKK [compound 1441], which Activity is on record?
A: 1

Q: For KWKLFKKIGIGAFLHSAKKF [compound 1203], which Activity is on record?
A: 1

Q: With KWKLFKKILKFLHLAKKF [compound 1131] as the substance, how does the Activity read?
A: 1

Q: With “KWKSFLkTFkSLKkTVLHTLLkAISS [compound 3765]” as the substance, how does the Activity read?
A: 1

Q: With “KWKSFlKTFKSlKKTVlHTllKAISS [compound 3763]” as the substance, how does the Activity read?
A: 1

Q: With RRRRRRRRGGC-Pem [compound 3343] as the substance, how does the Activity read?
A: 1

Q: For “TRSSRAGLQWPVGRVHRLLRKGGC [compound 2219]”, which Activity is on record?
A: 1

Q: With VAKALAKALLKALKAL [compound 1916] as the substance, how does the Activity read?
A: 1

Q: Which Activity does the source give for VNSKKISGKSIKVSK [satpdb10664] here?
A: 0

Q: Which Activity does the source give for “rrrrrrrrGNLWAAQRYGRELRRMSDEFVDSFKK [compound 2913]” here?
A: 1

Same assay, conditions: ACPs dataset sheet D2; 1 = ACP (CancerPPD/SATPdb ID), 0 = non-ACP (Swissprot/PDB ID); ref CancerPPD, SATPdb, Swissprot (PDB); cited from earlier work

Q: With “FLSLIPHAIN AVSALANHG [2JQ1 NMR - A 1-19]” as the substance, how does the Activity read?
A: 0

Q: For “GLFGVLAKVA AHVVPAIAEH F [2MMJ NMR - A 1-21]”, which Activity is on record?
A: 0

Q: Which Activity does the source give for “MAPRGFSCLL LLTSEIDLPV KRRA [1Y32 NMR - A 1-24]” here?
A: 0

Q: Which Activity does the source give for “MEEKPKGALAVILVLTLTILVFWLGVYAVFFARG [1XME X-ray 2.30 ,C，1-34]” here?
A: 0

Q: With “MLGNMNVFMAVLGIILFSGFLAAYFSHKWDD [5OQT X-ray 2.86 C 1-31]” as the substance, how does the Activity read?
A: 0

Q: Which Activity does the source give for “MNPNCARCGK IVYPTEKVNC LDKFWHKACF [1ZFO NMR - A 1-30]” here?
A: 0

Q: For “RSCPRIWMEC TRDSDCMAKC ICVAGHCG [1MCT X-ray 1.60 I，1-28]”, which Activity is on record?
A: 0

Q: With “RVCPRILMEC KKDSDCLAEC VCLEHGYCG [1LU0 X-ray 1.03 A/B 1-29]” as the substance, how does the Activity read?
A: 0

Q: Which Activity does the source give for SLLSLIRKLIT [2N9A NMR - A 1-11] here?
A: 0

Q: Which Activity does the source give for SSGWVCTLTI ECGTVICAC [1AJ1-A(1-19)] here?
A: 0
